Molecules are shown by their SMILES. The entries are a selection whose mix differs from that of the whole data set. Activity calls are given as the source filed them.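 How the source made its calls: active means inhibition above that plate's mean sample inhibition plus 3 SD (cut at about 26% in these data); inactive means the rest.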

For 47 compounds, inhibition results are on record in PubChem BioAssay AID463079 (The Scripps Research Institute Molecular Screening Center, 2010).

The nature of this test: nonselective Gq signaling inhibition in CHO cells – cell-based, fluorescence, Fluo-8 calcium dye, counter-screen for OX1R antagonist project, primary screen (AID 463079).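 Further: 0% = ATP-challenged DMSO wells and 100% = DMSO wells without ATP.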 Particulars: parental CHO-K1, ATP-induced calcium, Fluo-8 fluorescence; at 5.6 µM; hits give high values. The essentials: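 Assay system: parental CHO cells; Read-out basis: percent inhibition of ATP-evoked calcium rise, normalized to controls; Benchmarks: ATP and no-ATP DMSO wells; Compound dosing: single nominal dose of 5.6 µM per compound; Signal: Fluo-8 calcium dye fluorescence; Also added: ATP as calcium-mobilizing challenge; Repeats: singlicate.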
Take `CN(C(=O)Cc1ccc(Cl)c(Cl)c1)[C@@H]1CCCC[C@H]1N1CCCC1`: the inhibition is inactive: -10.6%.
The result for `CC(C)/C=N\N=C(\N)N[N+](=O)[O-]` reads inactive: 9.11%; that for `O=[As](O)(c1ccccc1Br)c1ccccc1Br`, inactive: -10.6%; that for `CC1(CBr)Cn2c(nc3ccccc3c2=O)S1` (configuration not stated), inactive: -8.59%.
`COc1ccccc1CNC(=O)COC(=O)C(O)(c1ccccc1)c1ccccc1`: the inhibition was inactive: -7.76%.
With `Clc1n[nH]nc1-c1nn[nH][15n]1` the figure was inactive: -9.24%; with `CC(C)(C)C(=O)NC(Sc1ncccn1)C(Cl)(Cl)Cl` (configuration not stated), inactive: -18.6%.
On to `CCC1=CC2Cc3nc4ccc(Cl)cc4c(N)c3C(C1)C2` (configuration not stated), for which the inhibition was inactive: -16.2%.
With `O=P1(Nc2ccccn2)COc2ccccc2OC1` the figure was inactive: 10.3%.
Consider `CCOP(=O)(NC(=NC(C)c1ccccc1)NC(C)c1ccccc1)OCC` (configuration not stated), for which the inhibition is inactive: -14.2%.
Turning to `CCOP(=O)(Nc1ccc(C)cn1)OCC`, the inhibition is inactive: -3.18%.
With `CN(CCCl)Cc1cc(Cl)c(NC2=NCCN2)c(Cl)c1` the figure was inactive: 0.4%; with `Nc1cccc([As](=O)(O)c2ccccc2)c1`, inactive: 3.96%; with `O=[As](O)(c1cccs1)c1cccs1`, inactive: -3.14%.
The result for `Cc1ccc(OCC(=O)OC2CN3CCC2CC3)cc1` (configuration not stated) reads inactive: -3.53%.
The result for `NS(=O)(=O)c1cccc(NC(=O)COC(=O)C(O)(c2ccccc2)c2ccccc2)c1` reads inactive: -14.3%.
Consider `O=P1(Nc2ccc(Br)cn2)COc2ccccc2OC1`, for which the inhibition is inactive: -3.48%.
With `O=P1(Nc2ncccn2)COc2ccccc2OC1` the figure was inactive: 1.3%.
With `CN(C)C1(CNC(=O)c2ccc(S(C)(=O)=O)cc2)CCCCC1` the figure was inactive: 12.1%.
The result for `O=C(/C=C/c1ccccc1)OC1CN2CCC1CC2` (configuration not stated) reads inactive: -10.8%; that for `Cc1nn(-c2ccccc2)c2c1P(=O)(N1CCOCC1)N(C)C(c1ccccc1)=N2` (configuration not stated), inactive: -7.34%.
Turning to `Cc1ccc(C(=O)OC2CN3CCC2CC3)cc1` (configuration not stated), the inhibition is inactive: -8.17%.
With `CC1CCC(C(C)C)C(OP(=O)(Nc2ccccn2)c2ccccc2)C1` (configuration not stated) the figure was inactive: -22.3%; with `N#CCCN(C(=O)COC(=O)C(O)(c1ccccc1)c1ccccc1)c1ccc(F)cc1`, inactive: -23%; with `CCOP1(=S)c2c(C)nn(CCC#N)c2N=C(c2ccc(F)cc2)N1C` (configuration not stated), inactive: -13%.
With `CN(C(=O)Cc1ccccc1)[C@@H]1CC[C@]2(CCCO2)C[C@H]1N1CCCC1` the figure was inactive: -20.2%; with `O=[N+]([O-])c1ccc2c(c1)nnn2O`, inactive: -9.67%; with `CN(C)C(=O)c1cc([N+](=O)[O-])cc2c1-c1c(cc([N+](=O)[O-])cc1[N+](=O)[O-])C2=O`, inactive: 7.8%.
With `CN(C(=O)Cc1ccc(Cl)c(Cl)c1)[C@H]1CC[C@@]2(CCCO2)C[C@@H]1N1CCCC1` the figure was inactive: -20.3%; with `NC(=O)Nc1ccc([As](=O)(O)O)cc1`, inactive: -10%.
With `O=C(O)COc1ccc([As](=O)(O)O)cc1[N+](=O)[O-]`, the inhibition was inactive: -7.69%.
With `Nc1ccccc1[As](=O)(O)c1ccccc1`, the inhibition was inactive: 8.69%.
With `CCOP1(=S)c2c(C)nn(CCC#N)c2N=C(c2ccccc2F)N1C` (configuration not stated) the figure was inactive: -4.08%.
In the case of `O=P(Nc1nccs1)(Oc1ccccc1)Oc1ccccc1`, the inhibition is inactive: -16.3%.
The result for `O=P(Nc1nccs1)(c1ccccc1)c1nc2ccccc2s1` (configuration not stated) reads inactive: 13.3%; that for `CS(=O)(=O)c1cc([N+](=O)[O-])c2no[n+]([O-])c2c1`, inactive: -11.6%.
With `COc1cc(C2NCCC3(OCCO3)C2(C)C)cc(OC)c1OC` (configuration not stated) the figure was inactive: -21.7%.
With `CCOP(=O)(Nc1cccc2ccccc12)OCC` the figure was inactive: -9.73%; with `Nc1cccc2c([As](=O)(O)O)cccc12`, inactive: 7.4%; with `Cc1ccc(NCCc2c([N+](=O)[O-])cc([N+](=O)[O-])cc2[N+](=O)[O-])cc1`, inactive: -20.4%.
With `CCCOP(=S)(Nc1nc(N)cc(=O)[nH]1)OCCC`, the inhibition was inactive: -15.6%.
The result for `Cc1cccc(OCC(=O)OC2CN3CCC2CC3)c1` (configuration not stated) reads inactive: -15.9%; that for `O=[As](O)(c1cccc(O)c1)c1cccc(O)c1`, inactive: 4.55%; that for `O=C(OC1CN2CCC1CC2)c1ccc(Cl)cc1` (configuration not stated), inactive: -13.8%.
Regarding `O=[As](O)(O)c1cccnc1`, the inhibition was inactive: -11.8%.
`COc1cc(C(=O)NCC2(N3CCOCC3)CCCCC2)cc(Cl)c1OC(C)C`: the inhibition is inactive: -22.2%.
The result for `CS(=O)(=O)c1ccc(Cl)c(NC(=O)COC(=O)C(O)(c2ccccc2)c2ccccc2)c1` reads inactive: -15.9%.
